Source: US9718869B2, “Peptide-based compounds and uses thereof to treat beta-amyloid accumulation” (MANUS PHARMACEUTICALS (CANADA) LTD., priority 2012, dated 2017)

Test system: sham-operated mice
Test: Morris water maze spatial memory test, sham-operated mice immunized with (FR-3-NP-1)2-Lys-OH / (R-2-FR-3-NP-1)2-Lys-OH in IFA (Example 3)
Details: four immunizations with IFA

Q: Which “Effect of immunization on spatial memory of SO mice (in words)” value does the source give for “Ser-Glu-Arg-Phe-Tyr-Glu-Cys-Cys-Lys-Glu-Lys(Ser-Glu-Arg-Phe-Tyr-Glu-Cys-Cys-Lys-Glu)-OH [(FR-3-NP-1)2-Lys-OH]” here?
A: Its value is “did not have a negative impact on their spatial memory”.
